In paper PMC6326798 (2018) one finds ratio to parent data, which are given here for eight variants.

The chains are these.
B1: hsCENP-H WT (recombinant, GST pull-down) [human] / GST-hsCENP-K^FL (hsCENP-K full length) [human] (parent complex)
chain 1: MEEQPQMQDADEPADSGGEGRAGGPPQVAGAQAACSEDRMTLLLRLRAQTKQQLLEYKSMVDASEEKTPEQIMQEKQIEAKIEDLENEIEEVKVAFEIKKLALDRMRLSTALKKNLEKISRQSSVLMDNMKHLLELNKLIMKSQQESWDLEEKLLDIRKKRLQLKQASESKLLEIQTEKNKQKIDLDSMENSERIKIIRQNLQMEIKITTVIQHVFQNLILGSKVNWAEDPALKEIVLQLEKNVDMM
chain 2: MNQEDLDPDSTTDVGDVTNTEEELIRECEEMWKDMEECQNKLSLIGTETLTDSNAQLSLLIMQVKCLTAELSQWQKKTPETIPLTEDVLITLGKEEFQKLRQDLEMVLSTKESKNEKLKEDLEREQRWLDEQQQIMESLNVLHSELKNKVETFSESRIFNELKTKMLNIKEYKEKLLSTLGEFLEDHFPLPDRSVKKKKKNIQESSVNLITLHEMLEILINRLFDVPHDPYVKISDSFWPPYVELLLRNGIALRHPEDPTRIRLEAFHQ

The experiment covers variants of B1. Description: GST pull-down; parent: 1; read off a plot.
chain 1 MEEQPQMQDADEPADSGGEGRAGGPPQVAGAQAACSEDRMTLLLRLRAQTKQQLLEYKSMVDASEEKTPEQIMQEKQIEAKIEDLENEIEEVKVAFEIKKLALDRMRLSTALKKNLEKISRQSSVLMDNMKHLLELNKLIMKSQQESWDLEEKLLDIRKKRLQLKQASESKLLEIQTEKNKQKIDLDSMENSERIKIIRQNLQMEIKITTVIQHVFQNLILGSKANWAEDPALKEIVLQLEKNVDMM [chain 1 V225A]: the ratio to parent was around 0.87.
On to chain 1 MEEQPQMQDADEPADSGGEGRAGGPPQVAGAQAACSEDRMTLLLRLRAQTKQQLLEYKSMVDASEEKTPEQIMQEKQIEAKIEDLENEIEEVKVAFEIKKLALDRMRLSTALKKNLEKISRQSSVLMDNMKHLLELNKLIMKSQQESWDLEEKLLDIRKKRLQLKQASESKLLEIQTEKNKQKIDLDSMENSERIKIIRQNLQMEIKITTVIQHVFQNAILGSKANWAEDPALKEIVLQLEKNVDMM [chain 1 L219A, chain 1 V225A], for which the ratio to parent is around 0.7.
Next, chain 1 MEEQPQMQDADEPADSGGEGRAGGPPQVAGAQAACSEDRMTLLLRLRAQTKQQLLEYKSMVDASEEKTPEQIMQEKQIEAKIEDLENEIEEVKVAFEIKKLALDRMRLSTALKKNLEKISRQSSVLMDNMKHLLELNKLIMKSQQESWDLEEKLLDIRKKRLQLKQASESKLLEIQTEKNKQKIDLDSMENSERIKIIRQNLQMEIKITTVIQHVFQNLILGSKVNAAEDPALKEIVLQLEKNVDMM [chain 1 W227A]: around 1.1; chain 1 MEEQPQMQDADEPADSGGEGRAGGPPQVAGAQAACSEDRMTLLLRLRAQTKQQLLEYKSMVDASEEKTPEQIMQEKQIEAKIEDLENEIEEVKVAFEIKKLALDRMRLSTALKKNLEKISRQSSVLMDNMKHLLELNKLIMKSQQESWDLEEKLLDIRKKRLQLKQASESKLLEIQTEKNKQKIDLDSMENSERIKIIRQNLQMEIKITTVIQHVFQNAILGSKVNWAEDPAAKEIVLQLEKNVDMM [chain 1 L219A, chain 1 L233A]: around 0.61.
As for chain 1 MEEQPQMQDADEPADSGGEGRAGGPPQVAGAQAACSEDRMTLLLRLRAQTKQQLLEYKSMVDASEEKTPEQIMQEKQIEAKIEDLENEIEEVKVAFEIKKLALDRMRLSTALKKNLEKISRQSSVLMDNMKHLLELNKLIMKSQQESWDLEEKLLDIRKKRLQLKQASESKLLEIQTEKNKQKIDLDSMENSERIKIIRQNLQMEIKITTVIQHVFQNAILGSKVNWAEDPALKEIVLQLEKNVDMM [chain 1 L219A], the ratio to parent is around 0.82.
As to chain 1 MEEQPQMQDADEPADSGGEGRAGGPPQVAGAQAACSEDRMTLLLRLRAQTKQQLLEYKSMVDASEEKTPEQIMQEKQIEAKIEDLENEIEEVKVAFEIKKLALDRMRLSTALKKNLEKISRQSSVLMDNMKHLLELNKLIMKSQQESWDLEEKLLDIRKKRLQLKQASESKLLEIQTEKNKQKIDLDSMENSERIKIIRQNLQMEIKITTVIQHVFQNLILGSKVNWAEDPALKEIVAQLEKNVDMM [chain 1 L238A], the ratio to parent is around 1.1.
With chain 1 MEEQPQMQDADEPADSGGEGRAGGPPQVAGAQAACSEDRMTLLLRLRAQTKQQLLEYKSMVDASEEKTPEQIMQEKQIEAKIEDLENEIEEVKVAFEIKKLALDRMRLSTALKKNLEKISRQSSVLMDNMKHLLELNKLIMKSQQESWDLEEKLLDIRKKRLQLKQASESKLLEIQTEKNKQKIDLDSMENSERIKIIRQNLQMEIKITTVIQHVFQNLILGSKANWAEDPAAKEIVLQLEKNVDMM [chain 1 V225A, chain 1 L233A], the ratio to parent was around 0.7.
chain 1 MEEQPQMQDADEPADSGGEGRAGGPPQVAGAQAACSEDRMTLLLRLRAQTKQQLLEYKSMVDASEEKTPEQIMQEKQIEAKIEDLENEIEEVKVAFEIKKLALDRMRLSTALKKNLEKISRQSSVLMDNMKHLLELNKLIMKSQQESWDLEEKLLDIRKKRLQLKQASESKLLEIQTEKNKQKIDLDSMENSERIKIIRQNLQMEIKITTVIQHVFQNLILGSKVNWAEDPAAKEIVLQLEKNVDMM [chain 1 L233A]: the ratio to parent was around 0.89.
